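Exposure lasted 48 hours, with cells grown in 96-well plates and compounds tested at five concentrations. GI50: concentration for 50% inhibition of growth. TGI: concentration producing complete growth inhibition.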
Test system: MDA-MB-468 breast
Assay: NCI tumour cell line growth inhibition, 48 h

With CSc1ccc(Nc2c([N+](=O)[O-])cc([N+](=O)[O-])cc2[N+](=O)[O-])cc1 the GI50 was 1.57 µM and the TGI was 4.74 µM.
